Assay results as given in patent US20120270884A1, “Methods of Treating Aneurysmal Dilatation, Blood Vessel Wall Weakness and Specifically Abdominal Aortic and Thoracic Aneurysm Using Matrix Metalloprotease-2 Inhibitors” (SYMPHONY EVOLUTION, INC., priority 2009, published 2012).

Tests used:
Format in all cases: biochemical
[1] = biological target: T1, MMP-2 (72 kDa gelatinase, gelatinase A) (Homo sapiens, UniProt P08253); assay: In vitro metalloprotease inhibition, MMP-2
T1 sequence (P08253 110-660): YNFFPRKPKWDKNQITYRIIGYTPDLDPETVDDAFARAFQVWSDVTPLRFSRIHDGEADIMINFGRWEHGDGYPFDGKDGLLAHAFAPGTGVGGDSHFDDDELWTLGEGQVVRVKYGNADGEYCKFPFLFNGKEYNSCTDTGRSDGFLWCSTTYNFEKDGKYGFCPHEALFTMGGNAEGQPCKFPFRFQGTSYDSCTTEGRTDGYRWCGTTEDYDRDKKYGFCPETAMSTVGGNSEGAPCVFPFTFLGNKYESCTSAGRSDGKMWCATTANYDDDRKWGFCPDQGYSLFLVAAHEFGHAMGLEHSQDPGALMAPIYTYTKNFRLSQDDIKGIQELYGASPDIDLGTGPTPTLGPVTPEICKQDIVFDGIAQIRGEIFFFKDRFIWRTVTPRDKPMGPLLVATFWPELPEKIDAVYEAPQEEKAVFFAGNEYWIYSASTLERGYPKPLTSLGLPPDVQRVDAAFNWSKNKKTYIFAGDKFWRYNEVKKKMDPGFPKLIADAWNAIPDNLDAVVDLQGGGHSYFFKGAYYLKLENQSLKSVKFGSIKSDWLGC
Source text: (§1) Blank cells indicate lack of data only.

[2] = biological target: MMP-8 (Neutrophil collagenase) (Homo sapiens, UniProt P22894); assay: In vitro metalloprotease inhibition, MMP-8
Source text: as §1

[3] = biological target: MMP-9 (92 kDa gelatinase, gelatinase B) (Homo sapiens, UniProt P14780); assay: In vitro metalloprotease inhibition, MMP-9
Source text: as §1

MMP-13 (collagenase-3) = MMP-13 (collagenase-3) (Homo sapiens, UniProt P45452); assay: In vitro metalloprotease inhibition, MMP-13
Source text: as §1

Measured: IC50

COCCOC(=O)N1CCN(S(=O)(=O)c2cc(F)c(Oc3ccc(Cl)cc3)c(F)c2)[C@@H](C(=O)NO)C1 [Entry 15]
< 50 nM: all assays above
